Literature values, collected in US11179415B1 (priority 2020, dated 2021).

Legend:
[1] = rats; cited from earlier work
[2] = rat; in drinking water up to several months; doses as high as 1000 mg/liter (1000 ppm or 0.1%); cited from earlier work
[3] = mouse; in drinking water up to several months; doses as high as 1000 mg/liter (1000 ppm or 0.1%); cited from earlier work
[4] = chicken; in drinking water up to several months; doses as high as 1000 mg/liter (1000 ppm or 0.1%); cited from earlier work

**Q.** With “sodium chlorite [NaCLO2, reference compound]” as the substance, how does the “lethal dose (LD)” value [1] read?
**A.** 140 mg/kg

**Q.** What about the methemoglobin concentrations [2] of the same substance?
**A.** no significant increases

**Q.** What about the methemoglobin concentrations [3] of the same substance?
**A.** no significant increases

**Q.** What about the methemoglobin concentrations [4] of the same substance?
**A.** no significant increases

Where two headings read alike, the source gives them in different places.
